Experimental findings from PubChem BioAssay AID848 (Columbia University Molecular Screening Center, 2007) are described below.

Structures are written as SMILES. This is a selection; strong and weak results do not stand in their true shares. Activity calls are given as the source filed them.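 How the source made its calls: active means cell count reduction exceeding the screen mean by over 5 SD, scaled to untreated wells per plate (cut at about 78% in these data); inactive means the rest.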

This test can be described thus: cytotoxicity in TNFa-stimulated HUVEC, primary screen, cytotoxicity control for VCAM1 expression modulator project, imaging, Hoechst nuclei count (AID 848).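 Further: cells counted after 24 h of TNF alpha exposure following the 1 h pretreatment.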 The note with it: HUVEC TNFalpha-stimulated, at 2 µM, stronger effect = higher value.
In the case of `CCC(CO)(C(=O)OC1CN2CCC1CC2)c1ccccc1` (stereo not given), the cell count reduction is inactive: -8%.
Consider `CCOc1ncccc1C(=O)NCC1(N2CCOCC2)CCCCC1`, for which the cell count reduction is inactive: 2.8%.
With `c1ccc(CN2CCC(Nc3ccccc3)CC2)cc1`, the cell count reduction was inactive: -18.6%.
The same measure for `N/C(=N\O)c1c(N)no[n+]1[O-]`: inactive: -8.9%; for `CN1CCC(Nc2cccc(F)c2)CC1`: inactive: 5.1%.
For `O=C(NCC1(N2CCOCC2)CCCCC1)c1cc(=O)[nH]c2ccccc12`, the cell count reduction was inactive: -16.5%.
As to `N#CC1(Nc2ccccc2)CCN(CCc2ccccc2)CC1`, the cell count reduction is inactive: -16.1%.
Regarding `COc1ccc(NC2CCN(CCc3ccccc3)CC2)c(OC)c1`, the cell count reduction is inactive: -10.8%.
As to `O=C(OC1CN2CCC1CC2)C1c2ccccc2Oc2ccccc21` (stereo not given), the cell count reduction is inactive: 0.8%.
With `O=C(NCC1(N2CCOCC2)CCCCC1)c1cc2ccccc2o1`, the cell count reduction is inactive: 0.5%.
